In assay [1] the target is T1, t-gp68 (truncated gp68 ectodomain, soluble) (HCMV AD169).
T1 chain: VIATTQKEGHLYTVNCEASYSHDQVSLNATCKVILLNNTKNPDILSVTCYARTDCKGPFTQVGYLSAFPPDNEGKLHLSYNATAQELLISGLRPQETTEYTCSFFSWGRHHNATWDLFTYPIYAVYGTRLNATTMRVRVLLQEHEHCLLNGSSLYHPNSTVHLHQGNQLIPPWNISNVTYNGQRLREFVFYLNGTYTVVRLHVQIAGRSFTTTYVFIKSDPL
Description: ELISA; antibody coated at 4 μg/mL; FLAG-labeled t-gp68, gp34-M, CD16A-GST or FcRn-GST diluted 5-fold from 450 nM in 5% milk PBST; anti-FLAG-M2-HRP. As to conditions: both partners purified. (In an ELISA, binding on a coated surface is turned into a signal by an enzyme label.)

In assay [2] the target is T1, t-gp68 (truncated gp68 ectodomain, …). The assay is described as follows: flow cytometry on cells; soluble t-gp68 (2 μM) and/or gp34-M (0.1 μM) with 67 nM antibody in solution, read as loss of antibody staining of AD169-infected MRC5 cells on ice. As to conditions: both partners purified. (In general: Flow cytometry measures light scatter and fluorescence of single cells or particles in a stream.)

B1: SM5–1 human IgG1 antibody with Fc variant R255Q (antibody, V domains shown)
VH: QVQLVQSGAEVRKPGASVKVSCKASGYSLKDHYMVWVRQAPGQGLEWMGWINPQSGGTGYGQKFQGRVTMTRDTSTNTAYMILSSLRSDDTAVYFCARDGAKTVSNSGLSLLYYHNRLDAWGQGTMVTVSS
VL: QSVLTQPPSVSAAPGQMVTISCSGSSSNIGKNYVSWYQQLPGAAPKLLIFDNNKRPSGTPDRFSGSKSGTSATLVITGLQTGDEADYYCGTPDRSLSVIFGGGTKVTVL
notes: SM5-1 VH, as the heavy chain of m25 (the ELISA methods name hu4D5 Fab arms instead); human IgG1 heavy-chain constant region (CH1, hinge, CH2, CH3); EU number minus 117 is the position in P01857; SM5-1 VL, as the light chain of m25 (the ELISA methods name hu4D5 Fab arms instead); human kappa constant domain; IgG1; source: ExpiCHO, purified (Protein A)
For B1, the binding result in assay [1] is reported as “binds”.

B2: SM5–1 human IgG1 antibody with wild-type Fc (antibody, V domains shown)
VH: B1 VH
VL: B1 VL
notes: also called SM5–1 WT; human SM5–1; source: ExpiCHO, purified (Protein A)
As for B2, in assay [2], the binding result is “binds”.

The values are drawn from paper PMC12831531 (Cell reports, 2025).
